The target in assay [1] is Aldehyde dehydrogenase, mitochondrial (Homo sapiens) (UniProt P05091). Kind of assay: qHTS for Inhibitors of the Aldehyde Dehydrogenase Family (ALDH2) Primary screen (AID 2061308).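 Also: plate controls were vehicle for no effect and reference inhibitor for full effect; nearly all actives have a fitted effect of over 55% in size.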 Conditions: ALDH2 enzyme inhibition qHTS, 1536-well; at 56 µM (top of the series).
Assay [2] concerns the target Retinaldehyde dehydrogenase 3 (Homo sapiens) (UniProt P47895). Briefly: qHTS for Inhibitors of the Aldehyde Dehydrogenase Family (ALDH1A3) Primary screen (AID 2061315).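 Also: plate controls were DMSO vehicle for no effect and reference inhibitor for full effect.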 To be noted: S. pombe CHP2027 cells, fluorescence laser cytometry, 18 h; at 56 µM (top of the series). On the technique in general: In qHTS, concentration-response curves come from the screen itself.

This is a selection; strong and weak results do not stand in their true shares. Some results for these compounds are left out of this collection, so the calls shown say nothing about other tests. Results filed as inconclusive are left out. Activity calls are given as the source filed them. Calls follow the shape of the dose curve; as a rule, active = well fitted curve in the direction sought with a large enough effect; inconclusive = small, poorly fitted or top-dose-only effect, or another doubt; inactive = no such curve, though single readings can be large; an effect the other way counts as inactive or inconclusive.

In the case of `O=C(C1CCC1)N1CCN(C/C=C/c2ccccc2)CC1`, the activity change, negative = inhibition is inactive: -0.952% in assay [1] and inactive: -3.06% in assay [2].

The values are drawn from PubChem BioAssay (NCATS).
